These results are taken from US20250059233A1, “USE OF THERAPEUTIC PEPTIDES” (Viage Therapeutics Inc., priority 2021, published 2025).

The subject of the test is AVPR1A, AVPR1B, AVPR2. In words: Tail suspension test (TST) with vasopressin receptor inhibitors. The settings on record: inhibitor given with the peptide. The class given is in vivo.

Regarding `COc1ccc(S(=O)(=O)N2C(=O)[C@@](c3ccccc3OC)(N3C[C@H](O)C[C@H]3C(=O)N(C)C)c3cc(Cl)ccc32)c(OC)c1` [nelivaptan], the “blocking of […] activity in a tail suspension test” value is on record as “blocks”.
